Source: patent publication US7691965B2, “Helical synthetic peptides that stimulate cellular cholesterol efflux” (The Regents of the University of California, priority 2002, dated 2010)

Chains of the proteins cited; added tags and fusions are not shown. Lines headed by an entry give the natural chain unless they say otherwise; changes in a name come on top.
UniProt P41233: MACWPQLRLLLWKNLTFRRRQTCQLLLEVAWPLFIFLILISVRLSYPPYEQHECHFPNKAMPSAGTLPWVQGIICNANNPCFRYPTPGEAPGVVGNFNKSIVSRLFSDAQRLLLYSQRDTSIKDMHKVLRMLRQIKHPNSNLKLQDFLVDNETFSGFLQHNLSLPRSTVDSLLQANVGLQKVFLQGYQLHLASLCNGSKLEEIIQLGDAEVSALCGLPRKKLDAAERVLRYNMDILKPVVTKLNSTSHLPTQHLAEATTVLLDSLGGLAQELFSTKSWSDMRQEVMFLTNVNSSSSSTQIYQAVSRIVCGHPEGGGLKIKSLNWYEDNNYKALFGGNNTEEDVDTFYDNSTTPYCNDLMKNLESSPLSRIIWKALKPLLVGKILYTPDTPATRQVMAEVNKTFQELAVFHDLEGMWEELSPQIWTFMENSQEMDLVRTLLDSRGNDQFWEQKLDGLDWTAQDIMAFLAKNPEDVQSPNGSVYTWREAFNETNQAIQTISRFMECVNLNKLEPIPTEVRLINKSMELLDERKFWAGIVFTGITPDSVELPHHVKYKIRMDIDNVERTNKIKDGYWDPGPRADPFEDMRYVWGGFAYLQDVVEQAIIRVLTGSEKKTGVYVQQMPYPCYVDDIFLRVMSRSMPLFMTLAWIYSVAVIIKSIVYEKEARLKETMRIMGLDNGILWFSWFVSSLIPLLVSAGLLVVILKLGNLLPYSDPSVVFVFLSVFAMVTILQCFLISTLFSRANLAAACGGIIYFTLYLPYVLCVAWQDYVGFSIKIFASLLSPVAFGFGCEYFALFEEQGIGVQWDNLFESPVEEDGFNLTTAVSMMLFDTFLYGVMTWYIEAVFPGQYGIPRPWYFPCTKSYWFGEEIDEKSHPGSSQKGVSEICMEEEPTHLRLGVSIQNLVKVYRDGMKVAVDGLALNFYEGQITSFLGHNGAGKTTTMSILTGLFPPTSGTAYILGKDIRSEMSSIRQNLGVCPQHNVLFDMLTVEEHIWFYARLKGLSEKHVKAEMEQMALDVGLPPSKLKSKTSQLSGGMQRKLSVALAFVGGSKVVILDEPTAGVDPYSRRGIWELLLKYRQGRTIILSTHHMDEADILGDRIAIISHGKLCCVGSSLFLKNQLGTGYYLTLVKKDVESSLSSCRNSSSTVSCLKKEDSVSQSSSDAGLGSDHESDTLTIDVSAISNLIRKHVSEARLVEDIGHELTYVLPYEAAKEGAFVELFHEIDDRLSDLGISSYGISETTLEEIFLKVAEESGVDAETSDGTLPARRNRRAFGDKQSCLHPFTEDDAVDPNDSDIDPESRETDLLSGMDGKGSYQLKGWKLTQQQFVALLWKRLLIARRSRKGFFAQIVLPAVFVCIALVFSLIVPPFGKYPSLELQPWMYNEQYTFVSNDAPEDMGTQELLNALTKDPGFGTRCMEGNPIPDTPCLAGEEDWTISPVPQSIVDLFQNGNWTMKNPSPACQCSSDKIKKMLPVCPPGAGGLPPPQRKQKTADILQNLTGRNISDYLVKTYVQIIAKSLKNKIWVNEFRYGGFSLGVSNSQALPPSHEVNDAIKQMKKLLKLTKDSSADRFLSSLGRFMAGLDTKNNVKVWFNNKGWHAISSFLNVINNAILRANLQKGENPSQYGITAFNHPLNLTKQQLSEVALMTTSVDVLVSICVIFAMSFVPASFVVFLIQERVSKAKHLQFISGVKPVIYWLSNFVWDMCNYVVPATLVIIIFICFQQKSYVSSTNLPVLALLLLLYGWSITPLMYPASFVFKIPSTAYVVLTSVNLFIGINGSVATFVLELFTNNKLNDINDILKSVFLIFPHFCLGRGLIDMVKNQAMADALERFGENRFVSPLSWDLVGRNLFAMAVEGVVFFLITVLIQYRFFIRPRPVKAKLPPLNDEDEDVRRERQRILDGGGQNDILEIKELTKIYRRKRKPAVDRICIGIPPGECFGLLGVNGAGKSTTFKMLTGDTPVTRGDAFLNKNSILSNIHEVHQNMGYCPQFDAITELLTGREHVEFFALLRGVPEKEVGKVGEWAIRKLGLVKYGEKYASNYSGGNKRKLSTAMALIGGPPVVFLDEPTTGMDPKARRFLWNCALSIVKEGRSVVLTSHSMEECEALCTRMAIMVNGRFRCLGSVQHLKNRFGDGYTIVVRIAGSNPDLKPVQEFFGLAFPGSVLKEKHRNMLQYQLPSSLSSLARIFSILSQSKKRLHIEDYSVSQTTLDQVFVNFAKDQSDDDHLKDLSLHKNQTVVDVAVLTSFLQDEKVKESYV

Target: ABCA1 (Mus musculus, UniProt P41233)
Test: Cellular cholesterol efflux from [3H]cholesterol-labeled J774 macrophages with and without cAMP analog
Assay type: cell-based
Design: endogenous in cells; host or cells: J774 macrophages treated with a cAMP analog (CPT-cAMP or 8-bromo-cAMP)
Conditions: lipid-free acceptor, J774 macrophages with vs without cAMP analog
Excerpt: Suitable cholesterol efflux assays are described in, e.g., Bielicki, J. K and Oda, M. N., Biochemistry, 41:2089-2096 (2002); Jia, Z. et al., Biochem. Biophys. Res. Common., 297:206-213 (2002). In some embodiments, a polypeptide known to mediate cholesterol efflux (e.g., helix 9/10 of Apo A-I) is used to screen for additional mediators of cholesterol efflux in a cell based assay. For example, cell lines in which cholesterol efflux can be enhanced using a cAMP analog that up-regulates ABCA1 protein expression (e.g., J774 macrophages) can conveniently be used to assess the ability of an Apo A-I, Apo A-II, Apo A-IV, Apo E, Apo C-I, Apo C-II, Apo C-III, or Serum Amyloid A peptide to mediate cholesterol efflux. […]
Cellular Cholesterol Efflux Protocol—J774 macrophages were used to assess the cholesterol efflux properties of synthetic amphipathic α-helical peptides (Bielicki, J. K and Oda, M. N., Biochemistry, 41:2089-2096 (2002); Jia, Z. et al., Biochem. Biophys. Res. Common., 297:206-213 (2002)). […] Efflux results were expressed as a percentage of the initial cellular [^3H] appearing in the medium as a function of time subtracting the background efflux obtained using serum-free medium alone.

ABCA1-dependent cholesterol efflux (result in words): poorly active
B1: N-terminal four-helix bundle: N-terminal domain of apoE derived from apoE3, cysteine at position 112 (protein)
chain: KVEQAVETEPEPELRQQTEWQSGQRWELALGRFWDYLRWVQTLSEQVQEELLSSQVTQELRALMDETMKELKAYKSELEEQLTPVAEETRARLSKELQAAQARLGADMEDVCGRLVQYRGEVQAMLGQSTEELRVRLASHLRKLRKRLLRDADDLQKRLAVYQAGAREGAERGLSAIRERLGPLVEQGRVR
